This note sets out measurements from ChEMBL document CHEMBL1123692, “Dopamine autoreceptor agonists: resolution and pharmacological activity of 2,6-diaminotetrahydrobenzothiazole and an aminothiazole analogue of apomorphine” (J Med Chem, 1987).

Molecules are shown by their SMILES.

The test concerns Rattus norvegicus. Nature of the test: Percent difference of DA utilization when compared to saline at a dose of 10 mg/kg. Type of test: functional.

The compound `CCCN[C@H]1CCc2nc(N)sc2C1.Cl.Cl` had a Difference of 131%.
